Assay [1] can be described thus: IUF_NPC5_oligodendrocyte_differentiation_120hr: Leibniz Research Institute for Environmental Medicine (IUF) 120-hour Oligodendrocyte Differentiation Assay (NPC5) (AID 2284304; active means hit-call score of the fitted dose curve at least 0.9, where 1 is the maximum;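 further: primary human fetal neural progenitor spheres plated to migrate and differentiate; share of O4-positive cells among Hoechst nuclei found by CNN image analysis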). In a few lines:
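Primary human fetal (GW 16-19) neural progenitor spheres (0.3 mm) plated on poly-D-lysine/laminin in N2 differentiation medium, exposed from day 0 for 120 h with half-medium refresh at day 3; O4-positive cells as percent of Hoechst nuclei, CNN-identified, versus DMSO.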

Assay [2] is described as follows: IUF_NPC4_neurite_area_120hr: Leibniz Research Institute for Environmental Medicine (IUF) 120-hour Neuronal Morphology Assay for Neurite Area (NPC4) (AID 2284305; active means hit-call score of the fitted dose curve at least 0.9, where 1 is the maximum). In a few lines: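 Human fetal cortex-derived neural progenitor spheres (0.3 mm, GW 16-19) plated on poly-D-lysine/laminin in N2 differentiation medium and exposed from day 0 for 120 h across 7 concentrations plus solvent control. Neurite area is mean pixel area per TUBB3-positive neuron via skeletonization, analysed relative to DMSO.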

The nature of assay [3]: IUF_NPC2-5_cytotoxicity_72hr: Cytotoxicity Assessment at 72 hours in the Leibniz Research Institute for Environmental Medicine (IUF) Neural Progenitor Cell Migration and Differentiation Assay for Cytotoxicity (NPC2-5) (AID 2284306; active means hit-call score of the fitted dose curve at least 0.9, where 1 is the maximum;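 further: LDH release into supernatant measured by resorufin fluorescence marking membrane damage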). In short, it runs like this:
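Human fetal (GW 16-19) neural progenitor spheres, 0.3 mm, plated on poly-D-lysine/laminin in N2 differentiation medium and exposed from day 0 to 7 concentrations plus solvent control (DMSO ≤0.1%). LDH-dependent resazurin-to-resorufin fluorescence in supernatant at 72 h.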

Assay [4] can be described thus: IUF_NPC2-5_cytotoxicity_120hr: Cytotoxicity Assessment at 120 hours in the Leibniz Research Institute for Environmental Medicine (IUF) Neural Progenitor Cell Migration and Differentiation Assay (NPC2-5) (AID 2284307; active means hit-call score of the fitted dose curve at least 0.9, where 1 is the maximum). In short, it runs like this:
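Human fetal neural progenitor spheres (0.3 mm, GW 16-19 cortex) were plated on poly-D-lysine/laminin in N2 differentiation medium and exposed for 120 h, with half-medium refresh at day 3. LDH release into supernatant was read by resorufin fluorescence.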

Assay [5] is described as follows: IUF_NPC2-5_cell_number_120hr: Cell Number Assessment at 120 hours in the Leibniz Research Institute for Environmental Medicine (IUF) Neural Progenitor Cell Migration and Differentiation Assay (NPC2-5) (AID 2284308).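 Further: count of Hoechst-stained nuclei in migration zone around plated human neural progenitor spheres.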 In short, it runs like this:
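Primary human fetal neural progenitor spheres (GW 16-19, 0.3 mm) plated on poly-D-lysine/laminin in N2 differentiation medium, exposed from day 0 for 120 h with half-medium refresh at day 3; Hoechst-positive nuclei counted in migration area versus DMSO control.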

Assay [6] can be described thus: IUF_NPC2-5_viability_120hr: Viability Assessment at 120 hours in the Leibniz Research Institute for Environmental Medicine (IUF) Neural Progenitor Cell Migration and Differentiation Assay (NPC2-5) (AID 2284312). In a few lines:
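Human fetal (GW 16-19) neural progenitor spheres of 0.3 mm were plated on poly-D-lysine/laminin in N2 differentiation medium and exposed from day 0 for 120 h, with half-medium refresh at day 3. Viability was read as alamar blue resazurin-to-resorufin fluorescence against DMSO.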

Assay [7] is described as follows: CCTE_Mundy_HCI_iCellGluta_NOG_NeuriteLength: CCTE's Neurite Outgrowth Assay in iCellGluta cells for Neurite Length, Mundy Lab (AID 2284318; active means hit-call score of the fitted dose curve at least 0.9, where 1 is the maximum). In a few lines: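 Automated high-content imaging of betaIII-tubulin (Alexa Fluor-488) and Hoechst-stained cells gave neurite length, normalized to the DMSO baseline.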
Assay [8] can be described thus: CCTE_Deisenroth_5AR_NBTE_donor: CCTE's 5alpha-reductase NanoBRET Target Engagement Assay […], Deisenroth Lab (AID 2284319). Particulars: actives raise or lower the signal. In a few lines: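 SRD5A2-NanoLuc, HEK293T, 20 h expression. Chemical 10 nM - 29.9 uM, 8 conc, duplicate; 3 h preincubation + 2 h testosterone tracer. Nano-Glo substrate plus extracellular NanoLuc inhibitor; donor lum 460 nm. DMSO baseline, bidirectional fit.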

The nature of assay [9]: CCTE_Deisenroth_5AR_NBTE_acceptor: CCTE's 5alpha-reductase NanoBRET Target Engagement Assay - Autofluorescence Screen, Deisenroth Lab (AID 2284321).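 Further: compound fluorescence in the acceptor channel under 460 nm excitation flags autofluorescence artifacts.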 Conditions: actives raise or lower the signal. In short, it runs like this:
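HEK293T cell-based NanoBRET assay read 5 h after dosing; this acceptor channel serves as an autofluorescence artifact screen. Chemicals at nominal 100 uM were scanned in three independent runs (n=3), excitation 460 nm. Fitting was bidirectional versus DMSO baseline.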

In assay [10] the test system is SRD5A2 (gene 6716). The experiment in a line: CCTE_Deisenroth_5AR_NBTE_ratio: CCTE's 5alpha-reductase NanoBRET Target Engagement Assay - Ratio, Deisenroth Lab (AID 2284322). Particulars: actives raise or lower the signal. In short, it runs like this: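 HEK293T transiently expressing SRD5A2-NanoLuc; cells exposed to chemical (8-point, 10 nM - 29.9 uM) for 5 h total, testosterone tracer added for final 2 h. NanoBRET acceptor/donor ratio (650/460 nm), bidirectional fit vs DMSO.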

The values below come from PubChem BioAssay (EPA / NIEHS).

This is a selection; strong and weak results do not stand in their true shares. Results filed as inconclusive are left out. The source made the active and inactive calls. How the source made its calls, unless noted: active means hit-call score of the fitted dose curve at least 0.9, where 1 is the maximum; inactive means score below 0.9.

For `CC(C)OP(=O)(OC(C)C)SCCNS(=O)(=O)c1ccccc1`, the outcome in [1], in assay [2], in assay [3], in [4], in assay [5] and in [6] was inactive. The compound was classed as inactive in assay [7].
As for `Cc1cc([N+](=O)[O-])cc([N+](=O)[O-])c1O`, the compound was called inactive in assay [8] and in assay [9]. The AC50 in assay [10] was active: 50 µM.
Consider `CC(C)OP(=S)(OC(C)C)SCCNS(=O)(=O)c1ccccc1`, for which the AC50 in assay [1] was active: 1.64 µM; in assay [7], active: 22.3 µM. Further, the outcome in assay [2], in [4], in assay [5], in [6], in assay [8] and in assay [9] was inactive. For the same compound, in [10], the outcome was inactive.
